An excerpt weighted towards active compounds, which were near 2.2% of everything screened.
ERp5 inh: inhibitors of human ERp5. Q15084. ERp5 insulin aggregation, absorbance 650 nm, 90 min. inhibition, % at 9.99 µM. hit rate 0.05% among 350,000. AID 651711;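 active = mean replicate inhibition above about 25%, with every replicate also reaching it, limit read from the data, passing the limit was not always enough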
S100A4 inh HTS: blocks human S100A4 binding to myosin IIA peptide; S100A4/TAMRA-MyoIIA peptide fluorescence polarization; AID 652163; hit rate 0.14% among 360,000; P26447; inhibition, % at 10.7 µM;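 active = mean inhibition of at least 70% across replicates, with every replicate also reaching that level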
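incubation = readout 5 min after mixing, signal stable up to 60 min | system = S100A4 monomer protein | buffer or medium = HEPES pH 7.2 with CaCl2, KCl, NaCl, DTT, Triton | benchmarks = neutral control DMSO, positive control TFP | also added = fluorescent myosin IIA peptide, 5 nM | compound dosing = one concentration per compound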
SIRT5 inh: inhibitors of human sirtuin-5 desuccinylase | Purified SirT5, succinyl-peptide AMC, trypsin-coupled fluorescence | hit rate 1.1% among 330,000 | inhibition, % at 15 µM | Q9NXA8; in the data active = inhibition above about 15%
Yeast UUG start: alters start codon recognition fidelity in yeast; AID 602363; activity score, % at 18.7 µM; 350,000 tested, 0.13% active; S. cerevisiae UUG-firefly luciferase reporter, luminescence/redox ratio;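 active means replicate mean at a twofold rise or more, about +100% in these data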;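 further: firefly luciferase made from a UUG start codon reports start codon fidelity; reporter light over untreated wells divided by growth signal over untreated wells; some hits fall short of that in this replicate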
FGF22 binding: FGF22 (human) thermal shift binding. hit rate 1.5% among 340,000. activity (Tm shift, normalised), % at 9.99 µM. Q9HCT0. recombinant FGF22 thermal shift, SYPRO orange fluorescence; percent of sucrose octasulfate shift, DMSO zero;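 active = mean Tm shift, scaled 0 neutral to 100 positive control, at about 1.3% or above, every replicate too, limit read from the data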
PDI inh: blocks human protein disulfide isomerase activity; P07237; PDI insulin aggregation turbidity, A650, 90 min; inhibition, % at 10 µM; hit rate 0.052% among 350,000; AID 588391;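 active = mean inhibition across replicates of 30% or more, whatever share of single replicates reach that level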
The depositor's hits bear a star; / = no result.

Every second line gives: ERp5 inh | FGF22 binding | SIRT5 inh | PDI inh | S100A4 inh HTS | Yeast UUG start
1: CC(C)CC(NC(N)=O)C(=O)NCCc1ccc(Cl)cc1Cl (stereo unspecified)
→ 5 | 44* | -6 | 4 | 1 | /
2: CC[C@H](C)[C@H](NC(N)=O)C(=O)Nc1ccc(C)cc1
→ 6 | 0 | -2 | -3 | -2 | /
3: CCc1ccc(C(=O)COC(=O)[C@@H](NC(N)=O)[C@@H](C)CC)cc1
→ 2 | 43* | -4 | 3 | -1 | /
4: C[C@@H]1CN([C@H](C)CO)C(=O)c2cccc(NS(=O)(=O)c3ccc(F)cc3)c2O[C@H]1CN(C)S(=O)(=O)c1cn(C)cn1
→ 0 | 0 | 3 | / | -20 | 2
5: O=C(NC[C@H]1CC[C@@H]2[C@@H](CN2C(=O)CN2CCOCC2)O1)NC1CCCCC1
→ -3 | / | 0 | / | -7 | /
6: CCCNC(=O)N(C)C[C@@H]1Oc2ncc(-c3ccccc3)cc2C(=O)N([C@@H](C)CO)C[C@@H]1C
→ -5 | 0 | -2 | / | 4 | 10
7: C[C@H]1CCCCO[C@@H](CN(C)Cc2ccc3c(c2)OCO3)[C@@H](C)CN([C@@H](C)CO)C(=O)c2cc(NS(=O)(=O)c3ccccc3)ccc2O1
→ 2 | / | 6 | / | 6 | 6
8: COc1cccc(OC)c1OCCOc1ccc(C(=O)c2ccccc2)cc1
→ -4 | 0 | 17* | -6 | 4 | /
9: C/C=C/c1ccc2c(c1)O[C@H](CN(C)C(=O)Cc1cccnc1)[C@@H](C)CN([C@@H](C)CO)S2(=O)=O
→ -5 | 0 | 2 | / | 2 | /
10: O=C(Nc1ccnn1C1CCN(C(=O)c2ccc(C(F)(F)F)cc2)CC1)C1CC1
→ 3 | 0 | 23* | -3 | -1 | -17
11: C[C@H](CO)N1C[C@H](C)[C@@H](CN(C)Cc2ccc(Cl)c(Cl)c2)OCCCC[C@H](C)Oc2ccc(NC(=O)NC3CCCCC3)cc2C1=O
→ 3 | -1 | 3 | / | -3 | 11
12: C[C@@H]1CCCCO[C@@H](CN(C)Cc2ccc(Cl)c(Cl)c2)[C@@H](C)CN([C@@H](C)CO)C(=O)c2cc(NC(=O)NC3CCCCC3)ccc2O1
→ 1 | -1 | 16* | / | -37 | 5
13: C[C@@H]1CN([C@H](C)CO)C(=O)c2cc(NC(=O)NC3CCCCC3)ccc2O[C@@H](C)CCCCO[C@@H]1CN(C)Cc1ccc(Cl)c(Cl)c1
→ 4 | -1 | 24* | / | 16 | 13
14: Fc1ccc(NC(=S)NCCN2CCOCC2)c(F)c1F
→ 0 | 43* | 1 | 6 | -8 | /
15: COCC(=O)N1[C@H](CO)[C@H](c2ccccc2)C12CN(C(=O)Cc1ccccn1)C2
→ -4 | 1 | 1 | / | 11 | /
16: CC1=C(C(=O)OC(C)C)C(c2ccc(Cl)cc2)n2c(sc(=Cc3ccc(OCC(=O)O)cc3)c2=O)=N1 (stereo unspecified)
→ -6 | 4.2* | / | -2 | -2 | -15
17: COc1ccc(CN2CCC[C@]3(N[C@H](c4ccc(OC)cc4)[C@@H]4C(=O)N(C)C(=O)[C@@H]43)C2=O)cc1
→ 4 | 0 | -7 | 2 | 2 | -18
18: COc1ccc([C@H]2N[C@]3(CCCN(Cc4ccc(C)cc4)C3=O)[C@H]3C(=O)N(C)C(=O)[C@@H]23)cc1
→ 0 | 0 | 39* | 3 | 7 | -9
19: CCCN1[C@@H]2Cn3c(ccc(/C=C/c4ccccc4)c3=O)[C@H]1[C@@H](C(=O)NCc1ccccn1)[C@@H]2CO
→ 4 | 0 | -64 | / | -4 | -7
20: CCn1c(CNc2cccc(C(F)(F)F)c2)n[nH]c1=S
→ -12 | 43* | -1 | -4 | -4 | /
21: C[C@@H]1CN([C@@H](C)CO)C(=O)c2cc(NC(=O)Nc3ccccc3)ccc2O[C@@H]1CN(C)C(=O)Nc1ccc2c(c1)OCO2
→ / | / | / | / | / | -6
22: C[C@H](CO)N1C[C@H](C)[C@@H](CN(C)C(=O)Nc2cc(F)ccc2F)Oc2cc(C#CC3CCCC3)ccc2S1(=O)=O
→ 6 | 0 | 10 | / | 6 | -15
23: Cc1ccccc1-c1ccc2c(c1)O[C@@H](CN(C)C(=O)Nc1ccc(F)cc1)[C@@H](C)CN([C@@H](C)CO)S2(=O)=O
→ 4 | 0 | 19* | / | -1 | /
24: C[C@H]1CN([C@@H](C)CO)S(=O)(=O)c2ccc(C#CC3CCCC3)cc2O[C@@H]1CN(C)C(=O)Nc1cc(F)ccc1F
→ 6 | 0 | 20* | / | -43 | -3

Some of the entries above in a different format.
13	C[C@@H]1CN([C@H](C)CO)C(=O)c2cc(NC(=O)NC3CCCCC3)ccc2O[C@@H](C)CCCCO[C@@H]1CN(C)Cc1ccc(Cl)c(Cl)c1
  ERp5 inh: 4; FGF22 binding: -1; SIRT5 inh: 24*; PDI inh: /; S100A4 inh HTS: 16; Yeast UUG start: 13

14	Fc1ccc(NC(=S)NCCN2CCOCC2)c(F)c1F
  ERp5 inh: 0; FGF22 binding: 43*; SIRT5 inh: 1; PDI inh: 6; S100A4 inh HTS: -8; Yeast UUG start: /

Screening data (PubChem BioAssay)
